Measured values reported in PubChem BioAssay (NCI).
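Compound exposure: 48 hours, 5 concentrations, 96-well plates. Here, GI50 denotes the concentration required for 50% inhibition of growth. TGI: total growth inhibition.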

Tests used:
Experiment in all cases: inhibition of tumour cell growth, NCI panel, 48 h; in the data active = GI50 below about 0.43 µM; inactive = the rest
NCI-H460 lung = system: NCI-H460 lung
HT29 colon = system: HT29 colon
M14 melanoma = system: M14 melanoma
SK-MEL-28 melanoma = system: SK-MEL-28 melanoma
IGROV1 ovarian = system: IGROV1 ovarian
COLO 205 colon = system: COLO 205 colon
OVCAR-8 ovarian = system: OVCAR-8 ovarian
ACHN renal = system: ACHN renal
KM12 colon = system: KM12 colon
DU-145 prostate = system: DU-145 prostate
MOLT-4 leukemia = system: MOLT-4 leukemia
NCI-H226 lung = system: NCI-H226 lung
PC-3 prostate = system: PC-3 prostate
OVCAR-4 ovarian = system: OVCAR-4 ovarian
OVCAR-3 ovarian = system: OVCAR-3 ovarian
SK-MEL-2 melanoma = system: SK-MEL-2 melanoma
RXF 393 renal = system: RXF 393 renal
SNB-75 CNS = system: SNB-75 CNS
SF-268 CNS = system: SF-268 CNS
SR leukemia = system: SR leukemia
HS 578T breast = system: HS 578T breast
SN12C renal = system: SN12C renal
SF-295 CNS = system: SF-295 CNS
UACC-62 melanoma = system: UACC-62 melanoma
NCI-H522 lung = system: NCI-H522 lung
SNB-19 CNS = system: SNB-19 CNS
A498 renal = system: A498 renal
HCT-15 colon = system: HCT-15 colon
MCF7 breast = system: MCF7 breast
TK-10 renal = system: TK-10 renal
T-47D breast = system: T-47D breast
RPMI-8226 leukemia = system: RPMI-8226 leukemia
LOX IMVI melanoma = system: LOX IMVI melanoma
BT-549 breast = system: BT-549 breast
SK-OV-3 ovarian = system: SK-OV-3 ovarian
SK-MEL-5 melanoma = system: SK-MEL-5 melanoma
MDA-MB-231 breast = system: MDA-MB-231 breast
SW-620 colon = system: SW-620 colon
OVCAR-5 ovarian = system: OVCAR-5 ovarian
CAKI-1 renal = system: CAKI-1 renal
MDA-MB-435 = system: MDA-MB-435
HOP-92 NSCLC = system: HOP-92 NSCLC
UACC-257 melanoma = system: UACC-257 melanoma
K-562 leukemia = system: K-562 leukemia
HOP-62 NSCLC = system: HOP-62 NSCLC
SF-539 CNS = system: SF-539 CNS
NCI/ADR-RES ovarian = system: NCI/ADR-RES ovarian
UO-31 renal = system: UO-31 renal
A549 NSCLC = system: A549 NSCLC
HCT-116 colon = system: HCT-116 colon
786-0 renal = system: 786-0 renal
CCRF-CEM leukemia = system: CCRF-CEM leukemia
HL-60(TB) leukemia = system: HL-60(TB) leukemia
HCC-2998 colon = system: HCC-2998 colon
U251 CNS = system: U251 CNS
EKVX NSCLC = system: EKVX NSCLC

CS(=O)(=O)c1ccc(-c2nc(NCc3cccs3)cc(C(F)(F)F)n2)cc1
90.2 µM: TGI (SK-OV-3 ovarian)
64.8 µM: TGI (TK-10 renal)
inactive: GI50 (NCI-H460 lung) > 100 µM | GI50 (HT29 colon) > 100 µM | GI50 (M14 melanoma) > 100 µM | GI50 (SK-MEL-28 melanoma) > 100 µM | GI50 (IGROV1 ovarian) 89.7 µM | GI50 (COLO 205 colon) > 100 µM | GI50 (OVCAR-8 ovarian) 97 µM | GI50 (ACHN renal) 27.6 µM | GI50 (KM12 colon) > 100 µM | GI50 (DU-145 prostate) 99.8 µM | GI50 (MOLT-4 leukemia) > 100 µM | GI50 (NCI-H226 lung) > 100 µM | GI50 (PC-3 prostate) 51.1 µM | GI50 (OVCAR-4 ovarian) > 100 µM | GI50 (OVCAR-3 ovarian) 37.3 µM | GI50 (SK-MEL-2 melanoma) > 100 µM | GI50 (RXF 393 renal) 28.4 µM | GI50 (SNB-75 CNS) 44.6 µM | GI50 (SF-268 CNS) > 100 µM | GI50 (SR leukemia) 32.7 µM | GI50 (HS 578T breast) 63.2 µM | GI50 (SN12C renal) > 100 µM | GI50 (SF-295 CNS) 18.6 µM | GI50 (UACC-62 melanoma) 51.3 µM | GI50 (NCI-H522 lung) 23.1 µM | GI50 (SNB-19 CNS) 43.2 µM | GI50 (A498 renal) > 100 µM | GI50 (HCT-15 colon) > 100 µM | GI50 (MCF7 breast) > 100 µM | GI50 (TK-10 renal) 1.39 µM | GI50 (T-47D breast) 6.27 µM | GI50 (RPMI-8226 leukemia) 46.1 µM | GI50 (LOX IMVI melanoma) 78.7 µM | GI50 (BT-549 breast) 94.7 µM | GI50 (SK-OV-3 ovarian) 19.4 µM | GI50 (SK-MEL-5 melanoma) > 100 µM | GI50 (MDA-MB-231 breast) 17.2 µM | GI50 (SW-620 colon) > 100 µM | GI50 (OVCAR-5 ovarian) > 100 µM | GI50 (CAKI-1 renal) 33.7 µM | GI50 (MDA-MB-435) > 100 µM | GI50 (HOP-92 NSCLC) 48 µM | GI50 (UACC-257 melanoma) 49.5 µM | GI50 (K-562 leukemia) 22.4 µM | GI50 (HOP-62 NSCLC) 33.9 µM | GI50 (SF-539 CNS) > 100 µM | GI50 (NCI/ADR-RES ovarian) > 100 µM | GI50 (UO-31 renal) 37.5 µM | GI50 (A549 NSCLC) > 100 µM | GI50 (HCT-116 colon) > 100 µM | GI50 (786-0 renal) 55.8 µM | GI50 (CCRF-CEM leukemia) > 100 µM | GI50 (HL-60(TB) leukemia) > 100 µM | GI50 (HCC-2998 colon) > 100 µM | GI50 (U251 CNS) 31 µM | GI50 (EKVX NSCLC) > 100 µM
93.4 µM: TGI (SNB-75 CNS)
> 100 µM: TGI (NCI-H460 lung) | TGI (HT29 colon) | TGI (M14 melanoma) | TGI (SK-MEL-28 melanoma) | TGI (IGROV1 ovarian) | TGI (COLO 205 colon) | TGI (OVCAR-8 ovarian) | TGI (ACHN renal) | TGI (KM12 colon) | TGI (DU-145 prostate) | TGI (MOLT-4 leukemia) | TGI (NCI-H226 lung) | TGI (PC-3 prostate) | TGI (OVCAR-4 ovarian) | TGI (OVCAR-3 ovarian) | TGI (SK-MEL-2 melanoma) | TGI (RXF 393 renal) | TGI (SF-268 CNS) | TGI (SR leukemia) | TGI (HS 578T breast) | TGI (SN12C renal) | TGI (SF-295 CNS) | TGI (UACC-62 melanoma) | TGI (NCI-H522 lung) | TGI (SNB-19 CNS) | TGI (A498 renal) | TGI (HCT-15 colon) | TGI (MCF7 breast) | TGI (T-47D breast) | TGI (RPMI-8226 leukemia) | TGI (LOX IMVI melanoma) | TGI (BT-549 breast) | TGI (SK-MEL-5 melanoma) | TGI (MDA-MB-231 breast) | TGI (SW-620 colon) | TGI (OVCAR-5 ovarian) | TGI (CAKI-1 renal) | TGI (MDA-MB-435) | TGI (HOP-92 NSCLC) | TGI (UACC-257 melanoma) | TGI (K-562 leukemia) | TGI (HOP-62 NSCLC) | TGI (SF-539 CNS) | TGI (NCI/ADR-RES ovarian) | TGI (UO-31 renal) | TGI (A549 NSCLC) | TGI (HCT-116 colon) | TGI (786-0 renal) | TGI (CCRF-CEM leukemia) | TGI (HL-60(TB) leukemia) | TGI (HCC-2998 colon) | TGI (U251 CNS) | TGI (EKVX NSCLC)
